IC50 data for four molecules are collected here from ChEMBL document CHEMBL1149497, “Complexes of alkylene-linked tacrine dimers with Torpedo californica acetylcholinesterase: Binding of Bis5-tacrine produces a dramatic rearrangement in the active-site gorge” (J Med Chem, 2006).

The structures appear in SMILES notation.

One assay has as its target Butyrylcholinesterase (Rattus norvegicus, UniProt Q9JKC1).
A further assay has as its target Acetylcholinesterase (Rattus norvegicus, UniProt P37136).

As usually defined, the IC50 is the concentration that inhibits the measured activity by half. Higher therefore signals weaker potency. In the case of `c1ccc2c(NCCNc3c4c(nc5ccccc35)CCCC4)c3c(nc2c1)CCCC3`, the IC50 is 0.102 µM on Butyrylcholinesterase and 0.711 µM on Acetylcholinesterase. For `c1ccc2c(NCCCCCCCCCNc3c4c(nc5ccccc35)CCCC4)c3c(nc2c1)CCCC3` the same measures were 0.155 µM and 0.031 µM. As for `c1ccc2c(NCCCNc3c4c(nc5ccccc35)CCCC4)c3c(nc2c1)CCCC3`, the half-maximal inhibitory concentration (IC50) on Butyrylcholinesterase came out at 0.152 µM. In the case of `c1ccc2c(NCCCCNc3c4c(nc5ccccc35)CCCC4)c3c(nc2c1)CCCC3`, the results for the IC50 at Butyrylcholinesterase and on Acetylcholinesterase were 0.252 µM and 0.157 µM, respectively.
